Source: patent publication EP3952872B1, “CARBAMOYL CYCLOHEXANE DERIVATIVES FOR TREATING AUTISM SPECTRUM DISORDER” (Richter Gedeon Nyrt., priority 2019, dated 2020)

Protein sequences, listed by entry. Tags and fused reporters are not part of them.
UniProt P35462, whole entry, species assumed: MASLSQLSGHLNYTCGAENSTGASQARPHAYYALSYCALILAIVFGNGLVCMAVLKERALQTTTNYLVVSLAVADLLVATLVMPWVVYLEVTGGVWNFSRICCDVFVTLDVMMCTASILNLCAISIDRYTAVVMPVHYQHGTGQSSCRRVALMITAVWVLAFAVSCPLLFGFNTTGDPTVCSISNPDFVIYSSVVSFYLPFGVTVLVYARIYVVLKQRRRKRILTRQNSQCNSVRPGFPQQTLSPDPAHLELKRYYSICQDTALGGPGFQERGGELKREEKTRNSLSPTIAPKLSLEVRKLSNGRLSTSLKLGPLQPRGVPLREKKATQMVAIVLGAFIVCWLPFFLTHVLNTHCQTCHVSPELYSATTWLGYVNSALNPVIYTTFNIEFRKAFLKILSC

Target: dopamine D3 receptor (Homo sapiens, UniProt P35462)
Conditions: Compound 2

Compound: O=C(N[C@H]1CC[C@H](CCN2CCN(c3cccc(Cl)c3Cl)CC2)CC1)N1CCOCC1 [Compound 2, trans-N-(4-{2-[4-(2,3-dichloro-phenyl)-piperazine-1-yl]-ethyl}-cyclohexyl)-morpholine-4 carboxamide]
- functional character at the dopamine D3 receptor: partial agonist
